Tests used:
hippocampus = test: Hippocampus volume in P21 rats, 30 days and 3 months after soman; conditions: 30 days and 3 months after exposure, LY293558 20 mg/kg, CRM 50 mg/kg
[1] = tested on: GABAA receptor-mediated spontaneous IPSCs of BLA principal neurons; test: Whole-cell recording of spontaneous IPSCs in BLA slices of treated P21 rats; conditions: 40 second time window, +30 mV holding potential
soman induced seizures = test: Seizure severity in P21 rats exposed to soman; conditions: LY293558 20 mg/kg i.m., CRM 50 mg/kg i.m., 1 h after exposure, within 120 min
amygdala = test: Amygdala volume in P21 rats, 30 days and 3 months after soman; conditions: 30 days and 3 months after exposure, LY293558 20 mg/kg, CRM 50 mg/kg
[2] = tested on: nerve agent induced-seizures; test: Caramiphen given 30 or 60 minutes after soman, adult rats, behavioral seizure score; conditions: CRM administered 30 or 60 minutes after soman exposure
soman-exposed P21 rats = test: Open field and acoustic startle response in P21 rats after soman exposure
soman-exposed P12 rats = test: Behavioral and sIPSC outcome in P12 rats after soman exposure
[3] = 1 month after soman, compared to Control

| Compound | degeneration of the hippocampus (estimated volume) (hippocampus) | charge transferred by sIPSCs of BLA principal neurons ([1]; 3 month time point after soman) | charge transferred by sIPSCs of BLA principal neurons ([1]; 30 day time point after soman) [pC] | severity of soman induced seizures (soman induced seizures) | degeneration of the amygdala (estimated volume) (amygdala) | time for the behavioral seizure score to fall below stage 2 [2] [h] | acoustic startle responses to 110 dB and 120 dB stimuli (soman-exposed P21 rats; [3]) | time spent in the center of the open field (soman-exposed P21 rats; [3]) | charge transferred by GABAA receptor-mediated spontaneous IPSCs (soman-exposed P12 rats; 30 days and 3 months after soman) | development of pathophysiological and behavioral deficits (soman-exposed P12 rats; LY293558 10 mg/kg i.m., CRM 50 mg/kg i.m., 60 min after soman, 30 days and 3 months) | increase in anxiety 1 month after soman-induced SE (soman-exposed P21 rats; LY293558 15 mg/kg i.m., CRM 50 mg/kg i.m., 60 min after soman) | suppression of seizure activity over 24 hours versus the soman only group (soman exposure; UBP302 250 mg/kg i.p.) [%] | neuronal degeneration in the subcortex, 7 days after exposure (soman exposure; administered 1 hour after soman exposure) | total duration of SE over a 24 hour period (soman exposure; treatment at 1 or 2 hours following soman) |
| --- | --- | --- | --- | --- | --- | --- | --- | --- | --- | --- | --- | --- | --- | --- |
| CCN(CC)CCOC(=O)C1(c2ccccc2)CCCC1 | failing to prevent degeneration of the hippocampus | 378.68+−40.67 pC | 201.49±30.91 | not effective in reducing seizure severity | failing to prevent degeneration of the amygdala | 1 to 2 | significantly increased | significantly reduced | – | – | – | – | – | – |
| (3S,4aR,6R,8aR)-6-[2-(1(2)H-tetrazole-5-yl) ethyl]decahydroisoquinoline-3-carboxylic acid | – | 627.89±119.90 pC | 359.1±53.98 | – | – | – | – | – | prevented the reduction in charge transferred | reduced development of pathophysiological and behavioral deficits | prevented increase in anxiety | – | – | – |
| (S)-3-(2-carboxybenzyl)willardiine | – | – | – | – | – | – | – | – | – | – | – | 65 | reduced neuronal degeneration | superior to diazepam in seizure control over 24 hours |

From patent publication US11744829B2, “Methods for treating neurological conditions and exposure to nerve agents” (dated 2023)
